These results are taken from paper PMC5041982, “Small-molecule inhibition of STAT3 in radioresistant head and neck squamous cell carcinoma” (Oncotarget, 2016).

The chains behind the UniProt entries cited, without tags or fusion partners.
UniProt P40763, whole entry, species assumed: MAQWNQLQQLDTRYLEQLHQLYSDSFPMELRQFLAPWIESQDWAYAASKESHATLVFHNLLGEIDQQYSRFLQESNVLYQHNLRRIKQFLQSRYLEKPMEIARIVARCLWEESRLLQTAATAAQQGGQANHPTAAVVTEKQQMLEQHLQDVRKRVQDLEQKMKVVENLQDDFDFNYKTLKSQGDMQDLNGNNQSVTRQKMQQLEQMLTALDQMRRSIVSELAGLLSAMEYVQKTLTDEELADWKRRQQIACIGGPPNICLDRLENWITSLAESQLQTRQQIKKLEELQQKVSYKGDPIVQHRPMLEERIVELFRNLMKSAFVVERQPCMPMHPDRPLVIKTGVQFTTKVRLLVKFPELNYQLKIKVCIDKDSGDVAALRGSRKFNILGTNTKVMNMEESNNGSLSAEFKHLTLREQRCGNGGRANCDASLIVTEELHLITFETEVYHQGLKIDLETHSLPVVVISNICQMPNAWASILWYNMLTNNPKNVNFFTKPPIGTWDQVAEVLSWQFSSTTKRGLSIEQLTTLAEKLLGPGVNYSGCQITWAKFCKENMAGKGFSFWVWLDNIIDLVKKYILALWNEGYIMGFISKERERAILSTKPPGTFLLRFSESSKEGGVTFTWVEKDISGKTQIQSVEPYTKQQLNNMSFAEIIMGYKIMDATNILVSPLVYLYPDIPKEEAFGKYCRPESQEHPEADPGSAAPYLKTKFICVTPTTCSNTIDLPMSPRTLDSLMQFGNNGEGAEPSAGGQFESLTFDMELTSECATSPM

The structures appear in SMILES notation. Where two headings read alike, the source gives them in different places.

Test [1] deals with STAT3 (Homo sapiens, UniProt P40763). The test can be described thus: STAT3/pY-peptide binding surface plasmon resonance (SPR) assay. As to conditions: for IC50: STAT3 200 nM. Here is the method: The equilibrium binding levels obtained ± compound were normalized (resonance obtained in the presence of compound ÷ the resonance obtained in the absence of compound × 100) and plotted against Log [nM] […] B. Inhibition of ligand-stimulated STAT phosphorylation, measured by phosphoflow. Serum-starved (1 hour) Kasumi-1 cells, pre-incubated with compound/DMSO (1 hour), were treated with G-CSF (10 ng/ml, 15 min, left two panels) or IFN-γ (10ng/ml, 15 min, right panel). Cells were permeabilized and stained with Alexa647-pSTAT3, and PE-pSTAT1 antibodies and analyzed on BD LSR2. FCS files were uploaded to Cytobank for pSTAT3 and pSTAT1 quantitation. Histograms depicting pSTAT3 and pSTAT1 levels are shown. C. Mean fluorescence (pSTAT3/1) levels were plotted as function the Log [M] compound, and IC50 calculated using GraphPad. […] D. Inhibition of ligand-stimulated STAT phosphorylation, measured by Luminex. Serum-starved (1 hour) Kasumi-1 cells, pre-incubated with compound/DMSO (0/0.1/0.3/1/3/10/100 μM, 1 hour), were treated with G-CSF (10 ng/ml, 15′). Total protein extracts of cells were assayed for pSTAT3, pSTAT1, and GAPDH levels by Luminex. […] These values were plotted as a function of Log [M] compound, and IC50 values calculated using GraphPad. […]
for analysis as described below. were determined by plotting % maximum response as a 3-D pharmacophore generation function of log concentration of compound and fitting the Each molecular chemical feature, including experimental points to a competitive binding model using hydrogen bond donor, hydrogen bond acceptor, positive a four parameter logistic equation: R = Rhigh − (Rhigh − R low)/ (1 + conc/A1)^A2, where R = percent response at and negative ionizable group, and hydrophobic region, inhibitor concentration, R = percent response with no was generated using the LigandScout application compound, R= percent response at highest compound high framework and projected into 3-D space. concentration, A2 = fitting parameter (slope) and A1 = low Feature-pairing IC50 (BIAevaluation Software version 4.1). […]
(In general: SPR reads the build-up and loss of mass on a sensor chip optically.)

In test [2] the target is T1, pSTAT3 (Tyr-705) (Homo sapiens, UniProt P40763).
T1 construct: endogenous in cells; host or cells: Kasumi-1
The test can be described thus: Phosphoflow, G-CSF-induced STAT3 phosphorylation in Kasumi-1 cells. In kind it is cell-based. Here is the method:
The equilibrium binding levels obtained ± compound were normalized (resonance obtained in the presence of compound ÷ the resonance obtained in the absence of compound × 100) and plotted against Log [nM] […] B. Inhibition of ligand-stimulated STAT phosphorylation, measured by phosphoflow. Serum-starved (1 hour) Kasumi-1 cells, pre-incubated with compound/DMSO (1 hour), were treated with G-CSF (10 ng/ml, 15 min, left two panels) or IFN-γ (10ng/ml, 15 min, right panel). Cells were permeabilized and stained with Alexa647-pSTAT3, and PE-pSTAT1 antibodies and analyzed on BD LSR2. FCS files were uploaded to Cytobank for pSTAT3 and pSTAT1 quantitation. […] Mean fluorescence (pSTAT3/1) levels were plotted as function the Log [M] compound, and IC50 calculated using GraphPad. […] D. Inhibition of ligand-stimulated STAT phosphorylation, measured by Luminex. […] These values were plotted as a function of Log [M] compound, and IC50 values calculated using GraphPad.
Phosphoflow analysis was done as described in Xu et al. Briefly, Kasumi-1 cells, were serum-starved, pre-treated with compound or DMSO (1 hour, RT) and then stimulated with 20 μl of GCSF (10 ng/ml) for 15 minutes at 37°C. The cells were then permeabilized and stained with Alexa647-pSTAT3, Alexa488-pSTAT5 and PE-pSTAT1 antibodies and analyzed using the BD LSR2. […] IC50 values were calculated using the GraphPad Prism.

Test [3] addresses T1, pSTAT3 (Tyr-705). The test can be described thus: Luminex bead-based assay, G-CSF-induced pSTAT3 in Kasumi-1 cells. In kind it is cell-based. Here is the method:
The equilibrium binding levels obtained ± compound were normalized (resonance obtained in the presence of compound ÷ the resonance obtained in the absence of compound × 100) and plotted against Log [nM] […] B. Inhibition of ligand-stimulated STAT phosphorylation, measured by phosphoflow. Serum-starved (1 hour) Kasumi-1 cells, pre-incubated with compound/DMSO (1 hour), were treated with G-CSF (10 ng/ml, 15 min, left two panels) or IFN-γ (10ng/ml, 15 min, right panel). Cells were permeabilized and stained with Alexa647-pSTAT3, and PE-pSTAT1 antibodies and analyzed on BD LSR2. FCS files were uploaded to Cytobank for pSTAT3 and pSTAT1 quantitation. Histograms depicting pSTAT3 and pSTAT1 levels are shown. C. Mean fluorescence (pSTAT3/1) levels were plotted as function the Log [M] compound, and IC50 calculated using GraphPad. […] D. Inhibition of ligand-stimulated STAT phosphorylation, measured by Luminex. Serum-starved (1 hour) Kasumi-1 cells, pre-incubated with compound/DMSO (0/0.1/0.3/1/3/10/100 μM, 1 hour), were treated with G-CSF (10 ng/ml, 15′). Total protein extracts of cells were assayed for pSTAT3, pSTAT1, and GAPDH levels by Luminex. GAPDH-normalized pSTAT3 or pSTAT1 values were divided by this ratio for untreated cells and expressed in percentage. These values were plotted as a function of Log [M] compound, and IC50 values calculated using GraphPad. […]

Test [4] addresses pSTAT3 (Homo sapiens, UniProt P40763). The test can be described thus: Constitutive pSTAT3 in HNSCC cell lines (Luminex). In kind it is cell-based. Also noted: endogenous in cells; host or cells: UM-SCC-17B, SCC-35, SCC-61, HN30. The note with it: UM-SCC-17B, 24 hrs.

A word on the IC50: it is the concentration that gives 50% inhibition. As usually defined, the Ki is the dissociation constant of the complex between target and ligand, obtained from inhibition or displacement. For `O=C(O)CSc1cc(NS(=O)(=O)c2ccc(C(=O)O)cc2)c2ccccc2c1O` [Compound C188], the IC50 came out at 10 µM in test [1] (Figure 2A inlay, read-out: SPR IC50, representative binding curve); 7.5 ± 3.5 µM in test [1] (EGFR pY1068 dodecapeptide, mean, n ≥ 2, read-out: pY-Peptide Binding (SPR) IC50); 24.4 µM in test [2] (Figure 2C, Kasumi-1, G-CSF, read-out: Phosphoflow pSTAT3 (Tyr-705) IC50, representative experiment); 16.8 ± 20.1 µM in test [2] (Kasumi-1, G-CSF 10 ng/ml 15 min, mean, n ≥ 2, read-out: Ligand Induced Phosphorylation (Phosphoflow) pSTAT3 (GCSF) IC50); 17.8 µM in test [3] (Figure 2D, Kasumi-1, G-CSF, read-out: Luminex pSTAT3 (Tyr-705) IC50, representative experiment); 16.2 ± 2.3 µM in test [3] (Kasumi-1, mean, n ≥ 2, read-out: G-CSF Induced Phosphorylation (Luminex) pSTAT3 IC50). The IC50 in test [4] (Figure 4A, read-out: Constitutive pSTAT3 (Luminex) IC50, representative experiment) was found to be 11.6 µM; in test [4] (mean, read-out: Constitutive pSTAT3 IC50), 15.4 ± 9.2 µM. The Ki in test [1] (calculated by Cheng-Prusoff from SPR IC50, [STAT3]=200 nM) was 0.0373 µM.
